Data published in PubChem BioAssay AID485349 (National Center for Advancing Translational Sciences (NCATS), 2010).
The entries are a selection whose mix differs from that of the whole data set. The source made the active and inactive calls. Calls follow the shape of the dose curve; as a rule, active = well fitted activation curve with a large enough effect; inconclusive = small, poorly fitted or top-dose-only effect; inactive = no such curve, though single readings can be large or run the other way.

Assay: qHTS Assay for Identifying a Potential Treatment of Ataxia-Telangiectasia; also: % of control where 0% means no effect; nearly all actives have a fitted effect of over 45% in size
Details: […] A-T fibroblasts, KAP-1 phosphorylation AlphaLISA, neocarzinostatin DNA damage 30 min before lysis; at 57.5 µM (top of the series)
Source text: NIH Chemical Genomics Center [NCGC] NIH Molecular Libraries Probe Centers Network [MLPCN] MLPCN Grant: MH089030-01 Assay Submitter (PI): Wei Zheng and Yosef Shiloh Ataxia-telangiectasia (A-T) is a devastating and progressive disease for which, there is no cure. Although A-T is a multisystem disease, it is stereotyped characterized by its neurological symptoms such as truncal ataxia, due to cerebellar cortical degeneration of the Purkinje and granule cells. Other symptoms of A-T are telangiectasias (dilated blood vessels), primary immunodeficiency, marked sensitivity to ionizing radiation (IR), chromosomal instability and predisposition to cancer. The underlying genetic cause of A-T is null mutations in the ATM (A-T mutated) gene. ATM is a nuclear serine/threonine kinase that functions as a master regulator of the cellular responses to double strand breaks (DSBs) in the DNA. Upon activation by DSBs, ATM phosphorylates a plethora of down stream targets, including KAP-1 on Ser82452. […] To screen for small molecules that will compensate for the loss of ATM in cells derived from A-T patients, we monitored KAP-1 phosphorylation as a readout for ATM-like activity using an AlphaLISA assay.
qHTS Assay Protocol: Step,Parameter,Value,Description 1. […] Readout, EnVision, EnVision plate reader. […] EnVision protocol for 1536-well AlphaScreen read (30ms excitation, 100ms read), about 10 min/plate.

Row | Structure (SMILES) | activation
1 | CCC(=O)N(c1ccccc1)C1(COC)CCN(CCc2cccs2)CC1 | inactive: -8.2%
2 | CCC(=O)N(c1ccccc1)C1(COC)CCN(CCn2nnn(CC)c2=O)CC1 | inactive: 7.37%
